Assay results: ChEMBL document CHEMBL3826914, “Selective photodepletion of malignant T cells in extracorporeal photopheresis with selenorhodamine photosensitizers” (Bioorg Med Chem, 2016)

Assay: Phototoxicity SEB-stimulated human CD25 deficient CD3 positive cells co-cultured with GFP expressing human HUT78 cells assessed as cell survival at 7.5 x 10^-8 M preincubated 20 mins in photosensitizer media followed by growth in photosensitizer-free media for 30 mins measured 18 hrs after exposure to 5 J/cm2 irradiation by FACS analysis
Work on `C[N+]1=c2cc3c(cc2C(C)(C)CC1)=C(c1ccc(C(=S)N2CCCCC2)s1)c1cc2c4c(c1[Se]3)CCCN4CCC2.[Cl-]` yielded a Survival of 8.7%. In the case of `C[N+]1=c2cc3c(cc2C(C)(C)CC1)=C(c1ccc(C(=O)N2CCCCC2)s1)c1cc2c4c(c1[Se]3)CCCN4CCC2.[Cl-]`, the Survival is reported as 13.9%. With `CN1CCC(C)(C)c2cc3c(cc21)[Se]c1cc2c(cc1=C3c1ccc(C(=S)N3CCCCC3)s1)C(C)(C)CC[N+]=2C.[Cl-]` the Survival was 11.1%. For `O=C(c1ccc(C2=c3cc4c5c(c3[Se]c3c2cc2c6c3CCCN6CCC2)CCC[N+]=5CCC4)s1)N1CCCCC1.[Cl-]`, the Survival was 83.4%.
